One substance from US6569863B1, “Bicyclic heteroamatic compounds useful as LH agonists” (Akzo Nobel NV, priority 1999, dated 2003) can be followed below.

The assay deals with immature female mice. The experiment in a line: In vivo ovulation induction assay for LH bioactivity in immature female mice. On the set-up: species or system mouse. Conditions: 20 IU/kg s.c., FSH-primed immature female mice, 24 h after administration. An excerpt: In female immature mice which are stimulated with follicle stimulating hormone (FSH), ovulation can be induced by luteininzing hormone (LH) or by human chorionic gonadotrophin (hCG) which binds to the same LH-receptor on the Graafian follicles. Binding to the LH-receptor initiates a biochemical cascade, which eventually results in follicular rupture and extrusion of a mature oocyte. To measure the in vivo activity of LH-agonistic compounds, inunature 20 days old mice (B6D2F1 stain, Broekman Institute, the Netherlands) are primed with unary FSH (Humegon; 12.5 IU/l, 0.1 ml s.c.) to initiate folliculogenesis. Forty-eight hours after FSH treatment test compound, reference compound or vehicle (10% cremophor solution) are administered to the animals. Test compounds (50 mg/kg in 0.1 ml) and vehicle (0.1 ml) are administered p.o., reference compounds (500 IU/kg hCG in 0.1 ml) are injected s.c. As a reference, hCG in-house standards are used which are calibrated against International Reference preparations of human hCG provided by the National Institute for Biological Standards and Controls (NMSC, London, UK). Twenty-four hours after administration of test compound, reference compound or vehicle, animals are killed by cervical dislocation. The oviducts are dissected and collected in 0.9% NaCl. […]

Regarding “Urinary hCG: human chorionic gonadotrophin, reference compound; in-house standards calibrated against International Reference preparations of human hCG”, the “Mouse in vivo ovulation induction (% ovulating animals)” value is reported as 100%.
